What all share (experiment): biochemical
Holding throughout (assay type): binding

The target in assay [1] is HLA-A*0202 (Homo sapiens, UniProt P04439, D140Y/D185E/D98H/E176V/E277Q/G131W/G231S/I119L/I121R/I166T/I218V/L180W/L300P/L318F/N151K/N90K/P208A/P217A/Q67R/Q86G/Q94H/R138H/R169H/T345S).
The target of assay [2] is HLA-A*0206 (Homo sapiens, UniProt P04439, D140Y/D185E/D98H/E176V/E277Q/F33Y/G131W/G231S/I119V/I121R/I166T/I218V/L300P/L318F/N151K/N90K/P208A/P217A/Q86G/Q94H/R138H/R169H/T345S).
Assay [3] concerns the target HLA-A*6802 (Homo sapiens, UniProt P04439, A269V/D140Y/D185E/E176V/E277Q/E87N/F33Y/G231S/I121R/I166T/I218V/L180W/L300P/L318F/N151K/P208A/P217A/Q86R/R138H/R169H/S129P/T345S/V36M).
Assay [4] concerns the target HLA-B*1801 (Homo sapiens, UniProt P01889, A329T/A93T/A95T/C349S/D201E/D54G/D98Y/E176V/E187T/E204Q/E69T/K202T/Q94N/R155S/R180L/S121R/V306I/Y140S/Y195H/Y33H/Y91S).
The target of assay [5] is HLA-B*4001 (Homo sapiens, UniProt P01889, A65T/A93T/A95T/D138N/D98Y/E176V/E69K/N87E/Q56L/Q94N/R180L/S121R/S35A/S48T/T167S/V36M/W171L/Y33H/Y91S).
In assay [6] the target is HLA-B*4002 (Homo sapiens, UniProt P01889, A65T/A93T/A95T/D138N/D201E/D98Y/E176V/E204Q/E69K/K202T/N87E/Q56L/Q94N/R180L/S48T/Y33H/Y91S).
Assay [7] deals with HLA-B*4402 (Homo sapiens, UniProt P01889, A223V/A65T/A93T/A95T/D201E/D98Y/E176V/E187L/E204Q/E69K/G107R/H137Y/K202T/L105A/L119I/N104T/N87E/Q56L/Q94N/R106L/R155S/R180D/S101N/S121R/S35A/S48T/T118I/V36M/W191S/Y140D/Y91S).
In assay [8] the target is HLA-B*4403 (Homo sapiens, UniProt P01889, A223V/A65T/A93T/A95T/D201E/D98Y/E176V/E187L/E204Q/E69K/G107R/H137Y/K202T/L105A/L119I/N104T/N87E/Q56L/Q94N/R106L/R155S/R180L/S101N/S121R/S35A/S48T/T118I/V36M/W191S/Y140D/Y91S).
In assay [9] the target is HLA-B*4501 (Homo sapiens, UniProt P01889, A329T/A65T/A93T/A95T/C349S/D138N/D201E/D98Y/E176V/E187L/E204Q/E69K/H137Y/K202T/L119W/N87E/Q56L/Q94N/R155S/R180D/S121R/S35A/S48T/V127L/V306I/V36M/W191S/Y140L/Y33H/Y91S).

pIC50: −log10 of the molar value.

Results on 6 molecules are retold here after patent US20060079453A1, “Hla binding peptides and their uses” (priority 2002, published 2006).

For `CC(C)C[C@H](NC(=O)[C@H](C)N)C(=O)N[C@@H](CCC(=O)O)C(=O)N[C@@H](CCC(=O)O)C(=O)N[C@@H](CCC(=O)O)C(=O)N[C@@H](CCC(=O)O)C(=O)N[C@H](C(=O)NCC(=O)N[C@@H](Cc1ccccc1)C(=O)N1CCC[C@H]1C(=O)N[C@H](C(=O)O)C(C)C)C(C)C`, the pIC50 is 6.31 in [1], 5.52 in [2] and less than 4.86 in [3].
In the case of `CC(C)[C@H](NC(=O)[C@@H]1CCCN1C(=O)[C@H](Cc1ccccc1)NC(=O)CNC(=O)[C@@H](NC(=O)[C@H](CCC(=O)O)NC(=O)[C@H](CCC(=O)O)NC(=O)[C@@H](N)CC(=O)O)C(C)C)C(=O)O`, the pIC50 in assay [4] was 8.15; in assay [5], less than 4.49; in assay [6], 5.37; in assay [7] it was 5.03; in [8], less than 4.98; in assay [9], 6.04.
For `CC(C)[C@H](NC(=O)[C@@H]1CCCN1C(=O)[C@H](Cc1ccccc1)NC(=O)CNC(=O)[C@@H](NC(=O)[C@H](CCC(=O)O)NC(=O)[C@H](CCC(=O)O)NC(=O)[C@H](CCC(=O)O)NC(=O)[C@@H](N)CCC(=O)O)C(C)C)C(=O)O`, the negative logarithm of the IC50 (pIC50) in assay [4] is 5.43; in [5] it was 5.48; in assay [7], 5.13; in assay [9], 7.43.
`CC(C)[C@H](NC(=O)[C@@H]1CCCN1C(=O)[C@H](Cc1ccccc1)NC(=O)CNC(=O)[C@@H](NC(=O)[C@H](CCC(=O)O)NC(=O)[C@H](CCC(=O)O)NC(=O)[C@@H](N)CCC(=O)O)C(C)C)C(=O)O`: the pIC50 in assay [5] was 5.02; in assay [6] it was 5.58; in [7], 5.20; in [8] it was less than 4.98.
As for `CC(C)[C@H](NC(=O)[C@H](CCC(N)=O)NC(=O)[C@@H]1CCCN1C(=O)[C@H](CCCNC(=N)N)NC(=O)[C@@H](NC(=O)[C@@H]1CCCN1C(=O)[C@H](Cc1ccccc1)NC(=O)CNC(=O)[C@@H](NC(=O)[C@H](CCC(=O)O)NC(=O)[C@@H](N)CCC(=O)O)C(C)C)C(C)C)C(=O)O`, the negative-log IC50 (pIC50) was less than 4.64 in assay [4]; 5.00 in [5]; 6.97 in assay [6]; 4.62 in [7]; 5.18 in assay [8]; 6.09 in assay [9].
With `CC(C)[C@H](NC(=O)[C@@H]1CCCN1C(=O)[C@H](Cc1ccccc1)NC(=O)CNC(=O)[C@@H](NC(=O)[C@H](CCC(=O)O)NC(=O)[C@H](CCC(=O)O)NC(=O)[C@H](CCC(=O)O)NC(=O)[C@H](CCC(=O)O)NC(=O)[C@@H](N)CCC(N)=O)C(C)C)C(=O)O`, the negative logarithm of the IC50 (pIC50) in assay [4] was less than 5.06; in assay [5], 4.88; in assay [6], 5.59; in [7], 4.82; in [8], less than 4.94; in [9] it was 7.07.
